We go through 1 compound from ChEMBL document CHEMBL4330113, “Discovery of new quinazoline derivatives as irreversible dual EGFR/HER2 inhibitors and their anticancer activities - Part 1” (Bioorg Med Chem Lett, 2019).

Sequences of proteins named here, by UniProt entry; tags and fusion partners are left off.
UniProt P00533, whole entry: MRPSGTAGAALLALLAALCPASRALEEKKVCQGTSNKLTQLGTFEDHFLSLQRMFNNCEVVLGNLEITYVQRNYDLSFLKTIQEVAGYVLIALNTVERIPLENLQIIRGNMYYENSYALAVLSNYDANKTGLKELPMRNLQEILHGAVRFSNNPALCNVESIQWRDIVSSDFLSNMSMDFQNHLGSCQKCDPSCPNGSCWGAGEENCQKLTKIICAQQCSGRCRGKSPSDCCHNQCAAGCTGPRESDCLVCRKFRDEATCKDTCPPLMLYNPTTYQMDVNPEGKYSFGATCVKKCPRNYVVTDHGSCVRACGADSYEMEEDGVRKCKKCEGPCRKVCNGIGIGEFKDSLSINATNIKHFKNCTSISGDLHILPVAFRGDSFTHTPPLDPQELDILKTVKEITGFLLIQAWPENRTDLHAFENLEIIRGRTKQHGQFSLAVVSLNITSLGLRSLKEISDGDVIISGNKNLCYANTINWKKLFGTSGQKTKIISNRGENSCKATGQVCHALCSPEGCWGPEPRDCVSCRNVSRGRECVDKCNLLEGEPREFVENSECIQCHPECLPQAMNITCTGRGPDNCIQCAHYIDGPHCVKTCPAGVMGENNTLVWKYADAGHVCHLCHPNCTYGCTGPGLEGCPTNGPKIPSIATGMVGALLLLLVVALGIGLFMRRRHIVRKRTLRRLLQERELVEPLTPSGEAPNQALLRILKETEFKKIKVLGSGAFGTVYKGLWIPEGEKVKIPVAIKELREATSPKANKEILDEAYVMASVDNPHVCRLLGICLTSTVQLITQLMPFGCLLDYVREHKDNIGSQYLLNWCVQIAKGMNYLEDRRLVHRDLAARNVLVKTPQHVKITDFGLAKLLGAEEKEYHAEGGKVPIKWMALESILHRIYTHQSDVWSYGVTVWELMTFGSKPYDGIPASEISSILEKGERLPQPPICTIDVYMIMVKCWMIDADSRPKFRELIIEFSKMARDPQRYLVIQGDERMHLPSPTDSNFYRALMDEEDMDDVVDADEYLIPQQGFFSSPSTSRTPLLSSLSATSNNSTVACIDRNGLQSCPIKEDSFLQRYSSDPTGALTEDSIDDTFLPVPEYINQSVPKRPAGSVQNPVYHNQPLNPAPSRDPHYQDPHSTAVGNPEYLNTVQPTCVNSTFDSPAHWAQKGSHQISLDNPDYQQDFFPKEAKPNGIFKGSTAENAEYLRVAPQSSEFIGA

pIC50: −log10 of the molar value.

The target of the assay is Epidermal growth factor receptor (Homo sapiens, UniProt P00533). Description: Inhibition of recombinant human GST-tagged EGFR catalytic domain (668 to 1210 residues) expressed in baculovirus expression system using TK-biotin peptide as substrate measured after 10 mins by HTRF assay.

`CCOCCOc1cc2ncnc(Nc3ccc(F)c(Cl)c3)c2cc1NC(=O)/C=C/CN(CC)CC`: the negative-log IC50 (pIC50) (as a rule, the negative decadic logarithm of the IC50, by convention in mol/L) is 8.83.
